From PMC6042327

How the values were obtained:
[1] = target: T1, full-length SGTA (small glutamine-rich, tetratricopeptide repeat-containing protein alpha), 1-313 (human), O43765; experiment: SAXS; 10 mM KPi, 100 mM NaCl, pH 6.0, 25 °C, protein 0.5-8.8 mg/ml; molecular weight from forward scattering against bovine serum albumin; self-association; settings: remark: other sources report otherwise
T1 chain: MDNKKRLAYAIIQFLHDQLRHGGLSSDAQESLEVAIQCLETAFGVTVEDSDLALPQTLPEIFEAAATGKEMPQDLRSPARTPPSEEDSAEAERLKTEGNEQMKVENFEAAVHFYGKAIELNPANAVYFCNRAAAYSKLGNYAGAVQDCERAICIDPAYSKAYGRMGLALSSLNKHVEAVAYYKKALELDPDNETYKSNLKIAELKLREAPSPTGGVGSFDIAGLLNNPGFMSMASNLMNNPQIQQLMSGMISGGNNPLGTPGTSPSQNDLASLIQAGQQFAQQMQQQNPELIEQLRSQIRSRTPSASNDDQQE

[2] = target: T1, full-length SGTA (small glutamine-rich, …); experiment: native MS; protein 5-10 uM in 0.20-0.75 M ammonium acetate pH 7.0, electrosprayed, source temperature 20 °C; self-association (monomer to dimer); settings: remark: other sources report otherwise

- stoichiometry N [1]: 2
- stoichiometry N [2]: 2
B1: full-length SGTA (small glutamine-rich, tetratricopeptide repeat-containing protein alpha), 1-313, O43765 1-313 (natural protein)
chain: T1 chain
